Biological target: human T-type calcium channels (human Cav3.2) (Homo sapiens (Human), UniProt O95180)
Assay: Antagonistic activity against T-type calcium channels (Cav3.2), Fura2 intracellular calcium assay in HEK293 cells
Type: cell-based
Settings: HEK293 cells stably expressing human Cav3.2; Fura2 fluorescence ratio after calcium chloride addition

Protein sequences, listed by entry. Tags and fused reporters are not part of them.
UniProt O95180, whole entry: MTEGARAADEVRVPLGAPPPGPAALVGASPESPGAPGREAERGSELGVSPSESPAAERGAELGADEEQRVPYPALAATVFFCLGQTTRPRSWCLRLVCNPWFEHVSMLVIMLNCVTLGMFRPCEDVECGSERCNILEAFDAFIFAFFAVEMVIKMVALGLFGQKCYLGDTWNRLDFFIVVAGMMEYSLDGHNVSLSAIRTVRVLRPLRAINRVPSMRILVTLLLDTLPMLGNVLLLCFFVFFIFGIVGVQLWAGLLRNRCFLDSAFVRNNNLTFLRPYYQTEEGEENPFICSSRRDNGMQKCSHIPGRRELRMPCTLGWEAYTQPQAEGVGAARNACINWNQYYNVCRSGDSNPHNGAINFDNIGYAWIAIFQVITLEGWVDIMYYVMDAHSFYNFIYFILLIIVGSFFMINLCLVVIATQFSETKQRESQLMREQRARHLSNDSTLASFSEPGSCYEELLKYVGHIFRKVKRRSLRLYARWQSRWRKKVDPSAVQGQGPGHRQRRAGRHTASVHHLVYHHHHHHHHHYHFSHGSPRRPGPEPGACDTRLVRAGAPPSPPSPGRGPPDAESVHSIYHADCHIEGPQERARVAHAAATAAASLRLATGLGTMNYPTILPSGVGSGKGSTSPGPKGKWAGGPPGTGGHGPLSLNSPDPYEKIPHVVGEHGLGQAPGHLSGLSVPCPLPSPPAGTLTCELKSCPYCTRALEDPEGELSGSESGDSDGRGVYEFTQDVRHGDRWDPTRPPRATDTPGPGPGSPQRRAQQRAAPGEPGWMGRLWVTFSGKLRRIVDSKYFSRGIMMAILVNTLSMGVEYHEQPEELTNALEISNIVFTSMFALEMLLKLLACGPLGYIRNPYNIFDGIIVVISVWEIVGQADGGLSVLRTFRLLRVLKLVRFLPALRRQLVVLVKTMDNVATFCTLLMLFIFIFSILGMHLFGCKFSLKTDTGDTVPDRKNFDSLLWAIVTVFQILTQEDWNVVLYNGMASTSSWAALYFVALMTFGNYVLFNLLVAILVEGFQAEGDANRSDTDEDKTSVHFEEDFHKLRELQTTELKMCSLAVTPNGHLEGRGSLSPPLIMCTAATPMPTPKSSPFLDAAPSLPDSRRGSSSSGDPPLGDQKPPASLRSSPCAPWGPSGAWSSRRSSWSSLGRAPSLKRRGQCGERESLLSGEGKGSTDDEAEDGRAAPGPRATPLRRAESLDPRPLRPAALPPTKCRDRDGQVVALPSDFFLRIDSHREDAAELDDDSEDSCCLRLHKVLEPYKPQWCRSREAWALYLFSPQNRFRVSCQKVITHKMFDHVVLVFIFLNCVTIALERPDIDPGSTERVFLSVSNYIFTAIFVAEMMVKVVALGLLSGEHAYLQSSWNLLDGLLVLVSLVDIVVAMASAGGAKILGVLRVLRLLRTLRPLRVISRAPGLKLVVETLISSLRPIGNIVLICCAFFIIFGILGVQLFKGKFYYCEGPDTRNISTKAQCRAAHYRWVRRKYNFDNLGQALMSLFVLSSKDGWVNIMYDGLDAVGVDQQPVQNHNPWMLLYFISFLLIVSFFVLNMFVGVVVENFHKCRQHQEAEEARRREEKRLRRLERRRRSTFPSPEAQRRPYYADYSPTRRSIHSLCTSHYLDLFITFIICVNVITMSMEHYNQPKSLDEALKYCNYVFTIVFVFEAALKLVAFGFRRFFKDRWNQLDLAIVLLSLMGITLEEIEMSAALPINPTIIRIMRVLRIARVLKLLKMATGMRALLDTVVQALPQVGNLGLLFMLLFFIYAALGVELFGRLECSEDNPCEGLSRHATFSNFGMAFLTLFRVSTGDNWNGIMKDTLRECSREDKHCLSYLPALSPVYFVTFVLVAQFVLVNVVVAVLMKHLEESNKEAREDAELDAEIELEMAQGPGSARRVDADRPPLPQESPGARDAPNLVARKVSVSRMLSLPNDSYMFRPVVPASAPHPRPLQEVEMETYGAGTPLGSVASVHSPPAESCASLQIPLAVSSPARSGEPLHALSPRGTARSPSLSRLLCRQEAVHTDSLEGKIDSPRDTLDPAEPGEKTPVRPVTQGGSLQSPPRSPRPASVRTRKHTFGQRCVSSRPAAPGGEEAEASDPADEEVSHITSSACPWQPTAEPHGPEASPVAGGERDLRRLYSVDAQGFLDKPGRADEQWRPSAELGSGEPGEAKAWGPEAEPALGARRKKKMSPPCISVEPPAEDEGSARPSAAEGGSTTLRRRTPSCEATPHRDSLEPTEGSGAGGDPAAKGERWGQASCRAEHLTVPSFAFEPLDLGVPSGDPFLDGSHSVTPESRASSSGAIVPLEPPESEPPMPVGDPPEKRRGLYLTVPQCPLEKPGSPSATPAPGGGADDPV

For `Cn1nc(C(F)(F)F)cc1C(=O)NC[C@@H]1C[C@H]2CC[C@@H](C1)N2CC(=O)NC(C)(C)C`, the IC50 was 49 nM.
